In ChEMBL document CHEMBL1142681, “Three-dimensional structure-activity relationships of nonsteroidal ligands in complex with androgen receptor ligand-binding domain” (J Med Chem, 2005):

Target: T1, Androgen receptor (Rattus norvegicus, UniProt P15207)
T1 sequence (P15207 whole entry): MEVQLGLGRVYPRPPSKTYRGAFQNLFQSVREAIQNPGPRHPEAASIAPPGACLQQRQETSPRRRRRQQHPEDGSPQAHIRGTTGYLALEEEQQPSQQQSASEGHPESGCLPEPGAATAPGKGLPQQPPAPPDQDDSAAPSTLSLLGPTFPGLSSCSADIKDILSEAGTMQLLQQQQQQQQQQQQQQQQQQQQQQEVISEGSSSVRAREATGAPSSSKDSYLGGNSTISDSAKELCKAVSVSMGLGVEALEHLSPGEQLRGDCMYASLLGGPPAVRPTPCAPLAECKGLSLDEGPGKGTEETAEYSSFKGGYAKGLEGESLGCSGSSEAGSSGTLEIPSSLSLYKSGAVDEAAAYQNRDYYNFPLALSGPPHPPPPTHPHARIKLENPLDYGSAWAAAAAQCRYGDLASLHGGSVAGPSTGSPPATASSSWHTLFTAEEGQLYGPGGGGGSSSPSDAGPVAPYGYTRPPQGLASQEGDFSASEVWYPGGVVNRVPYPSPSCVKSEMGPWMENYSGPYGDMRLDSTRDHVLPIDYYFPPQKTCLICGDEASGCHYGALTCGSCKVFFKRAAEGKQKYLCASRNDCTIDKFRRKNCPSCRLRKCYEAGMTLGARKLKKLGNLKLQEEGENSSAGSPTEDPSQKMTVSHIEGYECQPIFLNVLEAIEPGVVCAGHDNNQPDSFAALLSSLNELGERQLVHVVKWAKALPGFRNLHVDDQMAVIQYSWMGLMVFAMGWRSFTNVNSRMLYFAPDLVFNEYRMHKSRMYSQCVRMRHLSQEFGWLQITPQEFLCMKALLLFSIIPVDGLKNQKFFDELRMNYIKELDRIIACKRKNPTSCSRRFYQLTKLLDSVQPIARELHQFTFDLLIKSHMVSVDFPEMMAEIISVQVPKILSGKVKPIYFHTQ

Row | SMILES | Ki
1 | Cc1cc(=O)oc2cc(NC(=O)[C@@](C)(O)CBr)ccc12 | 275 nM
2 | C[C@](O)(CSc1ccc(F)cc1)C(=O)Nc1ccc2c(C(F)(F)F)cc(=O)oc2c1 | 339 nM
